Assays:
[1] = target: T1, 5α-reductase (Homo sapiens, UniProt P31213); test: In vitro assay of 5α-reductase inhibition (particulate fraction from homogenates of hyperplastic human prostates, [14C] testosterone); type: biochemical; conditions: human prostate particulate fraction, pH 5.5, 1 μM [14C] testosterone, 30 min, 37° C.
T1 construct: particulate fraction from homogenates of hyperplastic human prostates; from tissue; host or cells: hyperplastic human prostate, particulate fraction (140,000×g pellet)
T1 sequence (P31213 1-254): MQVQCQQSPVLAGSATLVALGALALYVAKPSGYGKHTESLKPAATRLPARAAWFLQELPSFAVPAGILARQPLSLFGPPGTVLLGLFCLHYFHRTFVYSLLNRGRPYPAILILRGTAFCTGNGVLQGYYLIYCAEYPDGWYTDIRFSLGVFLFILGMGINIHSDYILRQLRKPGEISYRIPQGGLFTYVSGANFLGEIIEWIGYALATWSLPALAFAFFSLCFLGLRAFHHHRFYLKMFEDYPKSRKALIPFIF
Protocol: (§1) For example, the inhibitory effect of the compounds of the invention on 5α-reductase was determined in vitro and in vivo according to the procedure reported herebelow.
Inhibition of 5α-reductase was evaluated using the particulate fraction from homogenates of hyperplastic human prostates as the enzyme source. The particulate fraction was prepared centrifuging prostate homogenate at 140,000×g. The resulting pellet, washed several times, was resuspended in buffer and stored at -80° C. in aliquots containing ≈10 mg protein/mi.
The assay for 5α-reductase was done in a final volume of 0.5 ml, in 40 mM TRIS-HCl buffer pH 5.5, containing 1 mM dithiothreitol, 5 mM NADPH, 1 μM [^14 C] testosterone, an aliquot of the enzyme preparation and various of the inhibitors. After 30 min incubation at 37° C. the reaction was terminated by addition of 2 ml cold diethyl ether and the organic phase was separated, evaporated under N2 and resuspended in ethyl acetate. […]
Radioactivity on the plate was scanned and analyzed from quantitative plots printed by a TLC-analyzer (Berthold). The fractional 5α-reduction of testosterone was calculated by relating the ^14 C-radioactivity in the 5α-reduced metabolites (5α-dihydrotestosterone, 3α- and 3β-androstanediols) regions to the total radioactivity in the testosterone and 5α-reduced metabolites regions. […]

[2] = test system: 5α-reductase; test: In vivo inhibition of 5α-reductase (antiandrogenic effect, ventral prostate weight in castrated, testosterone-implanted rats); conditions: rat, once daily for 7 consecutive days
Protocol: as §1
The standard test for the antiandrogenic effect in rats was used. Prepuberal 22-day-old male rats were castrated via scrotal incision under light ether anaesthesia. On the seventh day after orchiectomy, androgen replacement was performed via subcutaneous implantation of 1 cm-long Silastic® tube (Dow-Corning, Model No 602-265) filled with a mixture of 25% testosterone and 75% cholesterol. The rats were then treated orally with the tested compounds (7 animals/group), once daily for 7 consecutive days. 24 hours after the last dose the rats were sacrificed and the ventral prostate was removed and weighed. Control animals (testosterone controls) received the vehicle (0.5 ml/kg of 0.5% Methocel/0.4% Tween 80). One group of castrated rats was not implanted with testosterone (castrated controls).
The mean percentage of inhibition of the T-induced hypertrophic response of the prostate was calculated according to the following formula:
% inhibition=100×(WTC -W1)/(WTC -WCC)
where WTC, WCC and W1 are the mean prostate weight of testosterone control, castrated control and inhibitor treated group, respectively.

- IC50 [1]: 12 nM
SMILES: CC(NC(=O)[C@H]1CC[C@H]2[C@@H]3CC[C@H]4NC(=O)C=C[C@]4(C)[C@H]3CC[C@]12C)(c1ccccc1)C(F)(F)F (stereo partly drawn) [Compound 41, N-(1,1,1-trifluoro-2-phenylprop-2-yl) 3-oxo-4-aza-5α-androst-1-ene-17β-carboxamide]
- % INHIBITION OF PROSTATE WEIGHT AT 3 mg/kg/day p.o. [2]: 54%

— patent US5407939A, “Fluorinated 17 β-substituted 4-aza-5 α-androstan-3-one derivatives” (Farmitalia Carlo Erba S.R.L., priority 1992, dated 1995)
